3 compounds from PubChem BioAssay AID488969 (Vanderbilt High Throughput Screening Facility, 2010) can be followed below.

Chains of the proteins cited; added tags and fusions are not shown.
UniProt P70579, whole entry: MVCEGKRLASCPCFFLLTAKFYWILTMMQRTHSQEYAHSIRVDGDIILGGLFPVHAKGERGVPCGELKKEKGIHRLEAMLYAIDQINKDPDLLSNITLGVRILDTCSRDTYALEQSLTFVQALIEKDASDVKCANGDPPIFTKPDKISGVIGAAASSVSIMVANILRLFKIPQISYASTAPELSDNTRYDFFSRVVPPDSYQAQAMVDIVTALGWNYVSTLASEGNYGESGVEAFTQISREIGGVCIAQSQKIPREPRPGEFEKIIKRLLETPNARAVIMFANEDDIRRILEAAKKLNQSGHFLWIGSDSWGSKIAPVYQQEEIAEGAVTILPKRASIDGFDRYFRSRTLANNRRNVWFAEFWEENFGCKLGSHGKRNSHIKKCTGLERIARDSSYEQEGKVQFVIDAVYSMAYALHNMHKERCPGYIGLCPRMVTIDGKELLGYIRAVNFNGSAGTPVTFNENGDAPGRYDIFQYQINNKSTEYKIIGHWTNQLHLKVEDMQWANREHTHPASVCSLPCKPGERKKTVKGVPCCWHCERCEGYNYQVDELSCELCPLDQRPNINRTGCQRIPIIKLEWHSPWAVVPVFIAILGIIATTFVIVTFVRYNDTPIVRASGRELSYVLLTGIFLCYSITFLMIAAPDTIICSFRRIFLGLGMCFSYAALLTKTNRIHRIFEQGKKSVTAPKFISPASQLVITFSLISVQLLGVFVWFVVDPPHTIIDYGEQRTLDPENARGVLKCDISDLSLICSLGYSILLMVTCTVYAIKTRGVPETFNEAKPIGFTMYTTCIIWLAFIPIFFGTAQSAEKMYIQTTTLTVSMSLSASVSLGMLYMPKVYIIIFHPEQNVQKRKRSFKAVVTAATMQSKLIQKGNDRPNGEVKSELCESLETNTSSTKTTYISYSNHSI

This is a selection; strong and weak results do not stand in their true shares. Some results for these compounds are left out of this collection, so the calls shown say nothing about other tests.

The assay deals with Metabotropic glutamate receptor 8 (Rattus norvegicus) (UniProt P70579). Briefly: mGluR8 Gi/Go-coupled signaling modulation – cell-based, rat, thallium flux, HTS, primary screen (AID 488969). To be noted: HEK293 rat mGluR8, GIRK (G protein-gated inwardly rectifying potassium channel) thallium flux, FluoZin2; at 10 µM; stronger effect = higher value; submaximal glutamate (EC20) added with thallium.
As to `CN(C)c1cccc(C(=O)NCC2(N(C)C)CCCCC2)c1`, the z-score was found to be 0.57. Regarding `CC(C)N1C(=O)CC2(CCN(CCOC(=O)C(O)(c3ccccc3)c3ccccc3)CC2)C1=O`, the z-score was -0.14. Take `CN(C)C1CCCC1OC(=O)C(O)(c1ccccc1)c1ccccc1` (stereo not drawn): the z-score came out at 1.75.
